For the assay, the system named is Hashimoto's. Briefly: Case reports, Hashimoto's thyroiditis. To be noted: person; from 300.

`O=C1CC[C@@]2(O)[C@H]3Cc4ccc(O)c5c4[C@@]2(CCN3CC2CC2)[C@H]1O5` [Immediate release naltrexone, naltrexone] registered a B12 of 1785.

The record behind these values is US20170239239A1, “Method for Inducing a Sustained Immune Response” (Immune Therapeutics Inc., priority 2016, published 2017).
